# The list shows a part of the results.
# T1: LIN28A (human?, UniProt Q9H9Z2 1-209)
# T1 sequence: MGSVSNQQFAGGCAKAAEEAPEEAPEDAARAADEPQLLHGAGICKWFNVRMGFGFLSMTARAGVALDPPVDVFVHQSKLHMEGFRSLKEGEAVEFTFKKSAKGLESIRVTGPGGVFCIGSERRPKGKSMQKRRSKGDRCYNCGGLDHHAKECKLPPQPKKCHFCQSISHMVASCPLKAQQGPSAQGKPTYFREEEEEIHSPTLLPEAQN
# T2: CIRBP (Homo sapiens, UniProt Q14011 1-172)
# T2 sequence: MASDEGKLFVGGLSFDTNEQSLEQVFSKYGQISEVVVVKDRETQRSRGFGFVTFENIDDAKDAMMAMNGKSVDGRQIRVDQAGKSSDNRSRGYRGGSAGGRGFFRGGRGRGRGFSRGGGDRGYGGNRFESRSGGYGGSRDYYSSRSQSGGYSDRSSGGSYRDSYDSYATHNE
# T3: DHX36 (Homo sapiens, UniProt Q9H2U1 1-1008)
# T3 sequence: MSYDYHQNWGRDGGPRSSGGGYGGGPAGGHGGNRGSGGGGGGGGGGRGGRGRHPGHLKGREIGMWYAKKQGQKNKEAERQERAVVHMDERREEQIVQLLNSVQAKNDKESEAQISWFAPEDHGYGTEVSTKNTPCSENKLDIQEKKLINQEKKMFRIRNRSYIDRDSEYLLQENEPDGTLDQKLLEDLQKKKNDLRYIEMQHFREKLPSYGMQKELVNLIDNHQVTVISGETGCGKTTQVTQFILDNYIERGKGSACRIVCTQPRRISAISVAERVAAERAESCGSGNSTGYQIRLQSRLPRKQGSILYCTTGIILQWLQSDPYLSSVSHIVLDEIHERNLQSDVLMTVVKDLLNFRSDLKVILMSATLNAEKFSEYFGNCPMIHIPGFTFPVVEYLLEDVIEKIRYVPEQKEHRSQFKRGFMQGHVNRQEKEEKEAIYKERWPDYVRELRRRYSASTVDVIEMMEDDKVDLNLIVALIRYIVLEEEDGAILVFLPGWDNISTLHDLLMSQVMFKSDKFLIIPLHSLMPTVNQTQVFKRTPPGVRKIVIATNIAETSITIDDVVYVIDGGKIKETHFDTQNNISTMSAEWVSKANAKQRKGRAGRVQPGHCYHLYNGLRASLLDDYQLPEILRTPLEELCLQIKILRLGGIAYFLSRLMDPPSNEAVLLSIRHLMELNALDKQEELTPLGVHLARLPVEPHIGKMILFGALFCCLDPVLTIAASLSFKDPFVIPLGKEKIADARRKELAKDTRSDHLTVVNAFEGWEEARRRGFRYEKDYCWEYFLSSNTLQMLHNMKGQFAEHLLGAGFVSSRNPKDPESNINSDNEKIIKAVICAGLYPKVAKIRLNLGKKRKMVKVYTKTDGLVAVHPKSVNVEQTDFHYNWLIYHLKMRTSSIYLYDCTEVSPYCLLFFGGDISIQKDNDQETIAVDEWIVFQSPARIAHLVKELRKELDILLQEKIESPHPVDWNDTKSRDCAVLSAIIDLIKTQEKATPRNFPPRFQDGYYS
# B1: hsa-mir-3148 (structured_RNA)
# RNA: GGGACUAGAUAUUGCCGACAAUUACGUGGGUGUACGAAGUUUCAGCGCUUAUUGAUGUAGCCAACAAGCGCUGAAGCUUCGUGCAC
# B2: hsa-mir-143 (structured_RNA)
# RNA: GGGAGUCCGAAAUGGGAUGGAUAGAAAAGGUGUACGAAGUUUCAGCCUCUGGUCAGUUGGGAGUCUGAGGCUGAAGCUUCGUGCAC
# B3: hsa-mir-5194 (structured_RNA)
# RNA: GGGAAUCAAGCAGUGUGGCAGGAAUCUAGGUGUACGAAGUUUCAGCCUCAGGAAUUGGAUAAGCUUUUCUGAGGCUGAAGCUUCGUGCAC
# B4: hsa-mir-495 (structured_RNA)
# RNA: GGGAAAGGGCGAUCUUACACCUCCGACUGGUGUACGAAGUUUCAGCUUUUCGCUUUAUAUGUGACGAAACGCUGAAGCUUCGUGCAC
# B5: NEAT1_ParasoR_ID46 (structured_RNA)
# RNA: GGGAAAAGGUCGAGCGGGCUACUAGACCGGUGUACGAAGUUUCAGCACAGACGCUCUGUGCUGAAGCUUCGUGCAC
# B6: hsa-mir-2861 (structured_RNA)
# RNA: GGGAAAGGACGGGGUCAACAAAUGGUGUGGUGUACGAAGUUUCAGCCCUCUCGGGAACUACAAGUCCCAGGGGGGCUGAAGCUUCGUGCAC
# B7: hsa-mir-802 (structured_RNA)
# RNA: GGGAACCCUAAACGGAAUGCGAUCGAGCGGUGUACGAAGUUUCAGCUUGUGUCCAUCAUGCAACAAGCUGAAGCUUCGUGCAC
# B8: hsa-mir-133b (structured_RNA)
# RNA: GGGAACCCCGAGCGGUACAUUCAUCGAAGGUGUACGAAGUUUCAGCCAAGUCCGUCUUCCUGAGAGGUUUGGCUGAAGCUUCGUGCAC
# B9: hsa-mir-1275 (structured_RNA)
# RNA: GGGAAGAGGUAUUUCCAAGAGCACGGCGGGUGUACGAAGUUUCAGCUGUCUUGUGUCUGUAAGUAUGCUGAAGCUUCGUGCAC
# B10: hsa-mir-6849 (structured_RNA)
# RNA: GGGAUCUAUCGGGGAGCUGCAGUAUACUGGUGUACGAAGUUUCAGCGUGUGGAGAGAGCACUGAGCCUGCCCACCGCUGAAGCUUCGUGCAC
# B11: hsa-mir-7854 (structured_RNA)
# RNA: GGGAAUAUCAUGAGUGCGUUUGAAGCCCGGUGUACGAAGUUUCAGCUUGAGCAUCUUCUGGGCAGCUGAGCUGAAGCUUCGUGCAC
# B12: hsa-mir-4500 (structured_RNA)
# RNA: GGGAUACCAAUCCGAUGUUUACAAGGCCGGUGUACGAAGUUUCAGCAGAAGCUAAAGUGUAGAUCAAACGCAUAAUGGCUGAGCUGAAGCUUCGUGCAC
# B13: hsa-mir-4707 (structured_RNA)
# RNA: GGGAGUAGGCACCCGGUCAAGAGCUAAAGGUGUACGAAGUUUCAGCGGUUCUGGGGUGUAGACGCUGCUGGCCAGCCGCUGAAGCUUCGUGCAC
# Target: T1, LIN28A
# Assay: FOREST: bead pull-down of RNA structure library v1, barcode microarray; U1A/LIN28A: 20 mM HEPES pH 7.5, 80 mM KCl, 20 mM NaCl, 10% glycerol, 2 mM DTT, 0.1 ug/uL BSA, 4 C; BG4/CIRBP/DHX36: 10 mM Tris-HCl pH 7.5, 100 mM KCl (or LiCl),; high values mean tight binding
row,Binder,binding signal
1,B1,0.82 z-score
2,B2,0.797 z-score
3,B3,0.829 z-score
4,B4,0.832 z-score
5,B5,0.798 z-score
6,B6,0.766 z-score
7,B7,0.82 z-score
8,B8,0.761 z-score
9,B9,0.764 z-score
10,B10,0.82 z-score
11,B11,0.826 z-score
12,B12,0.775 z-score
13,B13,0.815 z-score

# Target: T2, CIRBP
# Assay: as above
row,Binder,binding signal
1,B1,0.592 z-score
2,B2,-1.05 z-score
3,B3,0.765 z-score
4,B4,1.29 z-score
5,B5,0.519 z-score
6,B6,0.867 z-score
7,B7,1.34 z-score
8,B8,1.56 z-score
9,B9,0.542 z-score
10,B10,-0.281 z-score
11,B11,1.49 z-score
12,B12,-0.0598 z-score
13,B13,-0.553 z-score

# Target: T3, DHX36
# Assay: as above
row,Binder,binding signal
1,B1,-0.338 z-score
2,B2,-0.405 z-score
3,B3,0.542 z-score
4,B4,0.35 z-score
5,B5,1.1 z-score
6,B6,0.205 z-score
7,B7,0.0941 z-score
8,B8,0.336 z-score
9,B9,-1.07 z-score
10,B10,0.899 z-score
11,B11,0.527 z-score
12,B12,-0.306 z-score
13,B13,0.67 z-score
